Antibody variant affinities, Ab-95 light chain, assay 2

Data: MIT Lincoln Laboratory AlphaSeq set, Engelhart et al. 2022, doi:10.1038/s41597-022-01779-4, as distributed in FLAb.

Antigen: PDVDLGDISGINAS, a 14-residue peptide of the SARS-CoV-2 spike HR2 region.

Parent scFv Ab-95: VH joined to VL by the linker GGGGSGGGGSGGGGS. Changes lie in the light chain CDRs alone.
VH: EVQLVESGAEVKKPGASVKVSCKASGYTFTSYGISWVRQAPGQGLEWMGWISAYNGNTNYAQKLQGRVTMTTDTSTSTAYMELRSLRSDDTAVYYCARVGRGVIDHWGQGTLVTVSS
VL: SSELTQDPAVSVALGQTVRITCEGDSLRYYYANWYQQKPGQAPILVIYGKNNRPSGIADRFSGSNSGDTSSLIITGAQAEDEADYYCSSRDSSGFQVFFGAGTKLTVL

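The starting antibody came from a phage panning campaign against this peptide. The library (AAYL52) carries one to three amino acid substitutions per variant, with no insertions or deletions. AlphaSeq pools MATa yeast showing the antibodies with MATalpha yeast showing the peptide. Binding brings cells together so that they mate, and sequencing counts the barcode pairs among the diploids. The ratio of observed to expected reads was calibrated, replicate by replicate, on BCL2-family standards whose Kd was known from biolayer interferometry. Mating was done three times.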

Variants are written as CDR1, CDR2 and CDR3 of the light chain (limits as in the source). Parent: EGDSLRYYYAN, GKNNRPS, SSRDSSGFQVF. Values are log10 of the apparent Kd in nM; lower means stronger binding. A pair that was not seen in that replicate is written "n.d."; this usually means weak binding, but a binder can also be missed. Background: pairings of library AAYL52 with three empty control strains gave a value in 28% of cases (median 3.91, 5th percentile 2.90). Values in that range, when seen in few replicates, are hard to tell from nonspecific mating. The control count says in how many pairings with the empty strains this scFv gave a signal, with their mean in brackets.

| # | CDR-L1 | CDR-L2 | CDR-L3 | replicates, log10 nM | control signals |
|---|---|---|---|---|---|
| 1 | EVDELRYYYAN | GKNNRPS | SSRDSSGCQVF | 3.43 n.d. n.d. | 2/9 (3.54) |
| 2 | EGDSLRYYYAN | LKNWRPS | ISRDSSGFQVF | 4.22 n.d. n.d. | 2/9 (3.69) |
| 3 | EGDSFRYYQAN | GKNNRPS | SSRGSSGFQVF | 3.16 2.90 2.51 | 4/9 (4.14) |
| 4 | EGDSLRYYYMN | GKNNRRS | PSRDSSGFQVF | n.d. n.d. n.d. | 1/9 (3.79) |
| 5 | EGDSLRYYYAH | GKNNRPS | SSEDSEGFQVF | n.d. n.d. n.d. | 0/9 |
| 6 | EGDSLRYYYAR | GKNNRPS | SSSDSSGFQVC | n.d. n.d. n.d. | 0/9 |
| 7 | SGDSLRYYYAN | GKNNRPS | SSRDSSGCQQF | 2.46 2.33 1.89 | 3/9 (3.32) |
| 8 | EGDSLKYYYAN | QKNNRPS | SSRDSSGFQMF | n.d. 3.67 n.d. | 1/9 (3.09) |
| 9 | EMDSDRYYYAN | GKNNRPS | SSRDCSGFQVF | 2.47 3.43 n.d. | 0/9 |
| 10 | EGDSLRYYYAV | GKNNRPS | MSRDSWGFQVF | 2.96 n.d. 4.06 | 3/9 (4.04) |
| 11 | EGDSLRYYYAI | GKNNRPS | SSRDKSGFQVF | 1.87 1.50 1.17 | 2/9 (4.20) |
| 12 | EGESLRYYYAN | GKNKRPS | SSRDSSGFQVQ | n.d. n.d. n.d. | 1/9 (3.94) |
| 13 | EGDSLRYYYRN | GKNWRPS | SSRISSGFQVF | 4.20 3.95 n.d. | 2/9 (3.24) |
| 14 | EGDSLRYYYAN | GKNNRPS | SKNDSSGFLVF | 2.98 3.04 3.20 | 3/9 (3.94) |
| 15 | EGDSLRYYYAH | GKNNRPG | SSRDSSGFQVS | 4.26 n.d. n.d. | 3/9 (4.34) |
| 16 | ESDSLRYYYAN | GKNNRFS | SSPDSSGFQVF | 3.48 5.14 n.d. | 4/9 (3.50) |
| 17 | EGDSLRYYYAN | GKNNRPM | SSRDSSEFGVF | n.d. 3.57 3.65 | 5/9 (3.50) |
| 18 | EGDSRRYYYAN | GKNVRPS | SSRLSSGFQVF | n.d. n.d. 3.79 | 3/9 (3.80) |
| 19 | EGDSLRYYYAN | GKNNTMN | SSRDSSGFQVF | 2.39 2.92 1.67 | 2/9 (3.13) |
| 20 | EGDDLRYYYAN | GKNNRPS | SSRDSSDFQFF | 3.88 3.93 3.33 | 6/9 (4.04) |
| 21 | EGDYLRYPYAN | GKNNRPD | SSRDSSGFQVF | 2.90 2.53 2.51 | 3/9 (3.96) |
| 22 | AGDSLRYPYAN | GKNNRPS | ESRDSSGFQVF | 2.36 2.25 2.23 | 2/9 (3.24) |
| 23 | MGDSLMYYYAN | GKNNRPS | SSRDSSIFQVF | 3.67 3.37 3.21 | 4/9 (4.60) |
| 24 | EGDSLRYTYAN | GKNKRPS | SSRDSSQFQVF | n.d. n.d. n.d. | 0/9 |
| 25 | EGDSLRYKYAN | GKNNRPV | SSRDSSGFQFF | 1.86 1.78 1.26 | 6/9 (3.69) |
| 26 | EWCSLRYYYAN | GKNNRPS | SSRDSSGFQSF | 4.66 4.39 n.d. | 3/9 (4.58) |
| 27 | EGDSLRVYYAN | GPNNRPS | SSRDSSGEQVF | 4.11 4.05 4.52 | 5/9 (4.74) |
| 28 | EGDSLRYGCAN | GHNNRPS | SSRDSSGFQVF | 1.22 1.08 0.48 | 4/9 (3.65) |
| 29 | EGDSLRYYYAN | GKNNRPS | SSFDSQGFSVF | n.d. n.d. n.d. | 2/9 (3.30) |
| 30 | EGDSLSYYYAN | GKNNRPS | SSRDSSDFQMF | n.d. n.d. n.d. | 1/9 (2.94) |
| 31 | RQDSKRYYYAN | GKNNRPS | SSRDSSGFQVF | 4.61 3.56 2.29 | 1/9 (4.78) |
| 32 | WGDSLRYYYAN | GKNNAPS | SSRDSVGFQVF | 4.67 4.44 4.13 | 5/9 (4.59) |

The opening 5 entries, copied out:

{"CDR-L1": "EVDELRYYYAN", "CDR-L2": "GKNNRPS", "CDR-L3": "SSRDSSGCQVF", "replicates, log10 nM": "3.43 n.d. n.d.", "control signals": "2/9 (3.54)"}
{"CDR-L1": "EGDSLRYYYAN", "CDR-L2": "LKNWRPS", "CDR-L3": "ISRDSSGFQVF", "replicates, log10 nM": "4.22 n.d. n.d.", "control signals": "2/9 (3.69)"}
{"CDR-L1": "EGDSFRYYQAN", "CDR-L2": "GKNNRPS", "CDR-L3": "SSRGSSGFQVF", "replicates, log10 nM": "3.16 2.90 2.51", "control signals": "4/9 (4.14)"}
{"CDR-L1": "EGDSLRYYYMN", "CDR-L2": "GKNNRRS", "CDR-L3": "PSRDSSGFQVF", "replicates, log10 nM": "n.d. n.d. n.d.", "control signals": "1/9 (3.79)"}
{"CDR-L1": "EGDSLRYYYAH", "CDR-L2": "GKNNRPS", "CDR-L3": "SSEDSEGFQVF", "replicates, log10 nM": "n.d. n.d. n.d.", "control signals": "0/9"}

Parent in this assay: reference entry 2.31, copy in this library 2.25.